Experimental findings from PMC5571939, “The nature of the Syntaxin4 C-terminus affects Munc18c-supported SNARE assembly” (PLoS ONE, 2017) are described below.

The assay has as its target T1, Munc18c:Sx4_(1-298)-TMD (HL-Munc18c with de-tagged full-length Sx4, pre-formed) (mouse, UniProt Q60770 1-592; P70452 1-298).
T1 construct: Munc18c (Munc18-3), mouse; as m12; Syntaxin4 (Sx4) with its C-terminal transmembrane domain, mouse, amino acids 1-298; as m6; also called HL-Munc18c/Sx4 binary complex; source: formed on TALON Co2+ beads from purified E. coli proteins; not shown: His6 with long linker ([residues removed]), N-terminal, kept; His6, N-terminal, cleaved
T1 sequence (looked up) 1: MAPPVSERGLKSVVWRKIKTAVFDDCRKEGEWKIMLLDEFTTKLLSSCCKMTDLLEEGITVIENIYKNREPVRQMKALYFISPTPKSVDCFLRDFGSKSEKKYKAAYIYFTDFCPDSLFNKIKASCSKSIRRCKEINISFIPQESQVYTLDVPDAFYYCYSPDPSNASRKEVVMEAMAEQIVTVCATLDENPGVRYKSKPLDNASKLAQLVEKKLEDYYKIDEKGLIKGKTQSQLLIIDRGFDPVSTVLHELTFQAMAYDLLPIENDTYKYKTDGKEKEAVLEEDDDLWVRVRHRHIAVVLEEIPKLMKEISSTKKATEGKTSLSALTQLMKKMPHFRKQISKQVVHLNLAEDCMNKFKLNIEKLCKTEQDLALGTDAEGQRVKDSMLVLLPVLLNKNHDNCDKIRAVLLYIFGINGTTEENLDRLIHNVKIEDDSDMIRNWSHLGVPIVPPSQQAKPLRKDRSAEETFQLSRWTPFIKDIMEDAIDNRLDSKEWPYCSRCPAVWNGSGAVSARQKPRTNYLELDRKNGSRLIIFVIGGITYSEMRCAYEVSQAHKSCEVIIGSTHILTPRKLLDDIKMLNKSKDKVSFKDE
T1 sequence (looked up) 2: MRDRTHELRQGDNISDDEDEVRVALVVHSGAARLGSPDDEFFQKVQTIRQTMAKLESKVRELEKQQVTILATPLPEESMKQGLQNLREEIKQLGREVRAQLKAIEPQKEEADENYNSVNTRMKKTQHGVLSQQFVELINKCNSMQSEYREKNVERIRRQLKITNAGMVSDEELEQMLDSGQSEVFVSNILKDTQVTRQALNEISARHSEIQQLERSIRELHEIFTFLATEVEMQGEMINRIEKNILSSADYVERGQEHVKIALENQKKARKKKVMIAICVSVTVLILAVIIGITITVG
In words: pull-down; beads with pre-formed HL-Munc18c/Sx4 binary complexes incubated with SNAP23 (100 μg, 21.7 μM) and VAMP2 (80 μg, 31.7 μM) together, overnight, 4°C; SDS-PAGE, Coomassie. The settings on record: both partners purified.

B1: VAMP2 (GST-cleaved) (domain or fragment)
chain: not shown
notes: VAMP2, rat, […]; also called synaptobrevin; source: purified (GSH-agarose, thrombin cleavage, MonoS cation exchange)
Regarding B1, the binding result is listed as “binds”.
